The values below come from ChEMBL document CHEMBL5223156, “Synthesis and biological evaluation of novel N-benzyltriazolyl-hydroxamate derivatives as selective histone deacetylase 6 inhibitors” (Bioorg Med Chem, 2023).

Sequences of proteins named here, by UniProt entry; tags and fusion partners are left off. A change or cut given only in a name is not applied to a line headed by its entry.
UniProt P56524: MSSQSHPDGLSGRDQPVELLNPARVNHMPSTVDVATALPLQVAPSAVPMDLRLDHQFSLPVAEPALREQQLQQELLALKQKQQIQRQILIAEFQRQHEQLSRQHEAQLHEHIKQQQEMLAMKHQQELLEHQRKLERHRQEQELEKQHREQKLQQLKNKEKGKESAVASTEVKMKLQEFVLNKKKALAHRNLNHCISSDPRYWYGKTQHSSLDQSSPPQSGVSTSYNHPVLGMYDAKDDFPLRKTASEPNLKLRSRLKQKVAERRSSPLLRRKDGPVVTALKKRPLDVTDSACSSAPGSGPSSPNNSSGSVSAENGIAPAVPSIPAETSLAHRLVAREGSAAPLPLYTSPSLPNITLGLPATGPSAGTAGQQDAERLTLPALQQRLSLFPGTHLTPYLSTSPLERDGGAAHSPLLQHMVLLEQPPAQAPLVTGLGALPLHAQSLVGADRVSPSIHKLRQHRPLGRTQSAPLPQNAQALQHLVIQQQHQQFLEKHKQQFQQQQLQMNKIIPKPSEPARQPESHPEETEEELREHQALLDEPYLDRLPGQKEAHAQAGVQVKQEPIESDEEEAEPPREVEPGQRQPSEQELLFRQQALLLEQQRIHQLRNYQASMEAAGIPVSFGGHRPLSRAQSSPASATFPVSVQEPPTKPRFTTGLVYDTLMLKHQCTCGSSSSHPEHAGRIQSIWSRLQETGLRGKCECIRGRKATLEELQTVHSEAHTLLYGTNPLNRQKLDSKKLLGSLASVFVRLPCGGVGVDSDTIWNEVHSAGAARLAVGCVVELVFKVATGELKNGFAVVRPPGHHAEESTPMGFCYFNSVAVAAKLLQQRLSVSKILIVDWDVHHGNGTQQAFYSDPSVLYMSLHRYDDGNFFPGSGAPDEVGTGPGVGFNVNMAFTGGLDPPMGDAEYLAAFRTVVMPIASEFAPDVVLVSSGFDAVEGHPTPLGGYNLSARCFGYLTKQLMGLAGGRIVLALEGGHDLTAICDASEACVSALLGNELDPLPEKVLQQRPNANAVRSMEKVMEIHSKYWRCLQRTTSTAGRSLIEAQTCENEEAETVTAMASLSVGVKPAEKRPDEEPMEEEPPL

The test deals with Histone deacetylase 4 (Homo sapiens, UniProt P56524). The test is described as follows: Inhibition of human recombinant HDAC4 using fluorogenic substrate measured after 30 mins.

SMILES strings stand for the structures. pIC50: −log10 of the molar value.

Regarding `CN1CCc2c(c3ccccc3n2Cc2ccc(C(=O)NO)cc2)C1` [TUBASTATIN A], the pIC50 was 5.37.
